The list shows a part of the results, in another mix than the full data. Results filed as inconclusive are left out. Calls of active or inactive are those of the source. Calls come from the whole dose curve; as a rule, active = well fitted inhibition curve with a large enough effect; inconclusive = small, poorly fitted or top-dose-only effect; inactive = flat fitted curve, though single readings scatter.
% is set by controls: 0 for no effect and ±100 for the full control effect.

The assay is described as follows: Cytotoxic Profiling in HEK 293 Cell Line of Diverse Libraries Using Quantitative High-Throughput Screening. Note: nearly all actives have a fitted effect of over 60% in size. To be noted: HEK 293 viability, ATP luminescence (CellTiter-Glo), 48-72 h; at 230 µM (top of the series) unless noted. An excerpt: Cell-based phenotypic screening is a commonly used approach to discover biological pathways, novel drug targets, chemical probes and high-quality hit-to-lead molecules. Many hits identified from high-throughput screening campaign are ruled out through a series of follow-up potency, selectivity/specificity, and cytotoxicity assays. Prioritization of molecules with little or no cytotoxicity for a more in-depth downstream evaluation influence the future direction of projects, so cytotoxicity profiling of the screening libraries at early stage is essential for increasing the likelihood of candidate success. In this study, we analyzed results from a cell-based cytotoxicity screening campaign, comprising nearly 10,000 compounds in NCATS annotated libraries, and over 100,000 compounds in a diversity library, evaluated in four normal cell lines (HEK 293, NIH 3T3, CRL-7250 and HaCat) and a cancer cell line (KB 3-1, a HeLa subline) with overall screening outcomes, hit rates, pan-activity and selectivity. […]
HEK 293 cells were seeded into white 1536-well plates using a Multidrop Combi peristaltic dispenser (ThermoFisher, Waltham, MA) at a density of 250 cells/well in 5 uL of medium respectively. […] Plates were left at room temperature for 10 min before imaging the ATP-coupled luminescence using a ViewLux microplate imager (PerkinElmer, Waltham, MA).
(In general: Cellular ATP, detected with luciferase, serves as a proxy for viable cell number.)
Regarding `CNCc1cccc(C)n1`, the activity change, negative = cytotoxicity was inactive: 0%. With `CNCc1cc2ccccc2o1`, the activity change, negative = cytotoxicity was inactive: -6.79% [at 172 µM].

Source of the values: PubChem BioAssay AID1345083 (National Center for Advancing Translational Sciences (NCATS), 2018).
